{
  "source": "patent US20250177353A1",
  "about": "(priority 2021, published 2025)",
  "key": {"[1]": {"experiment": "MAD study: systolic and diastolic blood pressure"}, "[2]": {"experiment": "Phase 2a trial: safety and tolerability, adverse events (Table 5)"}},
  "data": [
    {"smiles": "Cn1c(COc2ccc([N+](=O)[O-])cc2[N+](=O)[O-])cnc1[N+](=O)[O-]", "values": [
      {"measurement": "systolic blood pressure", "setting": "[1]; all three dose levels (FIG. 10)", "result": "reduces"},
      {"measurement": "diastolic blood pressure", "setting": "[1]; all three dose levels (FIG. 11)", "result": "reduces"},
      {"measurement": "Number of adverse events: All TEAEs", "setting": "[2]; 150 mg daily (N = 20)", "result": 42},
      {"measurement": "Number of adverse events: Serious TEAEs", "setting": "[2]; 150 mg daily (N = 20)", "result": 0},
      {"measurement": "Number of adverse events: Treatment-related TEAEs", "setting": "[2]; 150 mg daily (N = 20)", "result": 24},
      {"measurement": "Subjects with at least 1 Severe TEAE, %", "setting": "[2]; 150 mg daily (N = 20)", "result": "(5.0) %"},
      {"measurement": "Subjects with at least 1 TEAE leading to withdrawal of study drug, %", "setting": "[2]; 150 mg daily (N = 20)", "result": "(10.0) %"},
      {"measurement": "Subjects with at least 1 Treatment-emergent adverse event (TEAE), %", "setting": "[2]; 150 mg daily (N = 20)", "result": "(65.0) %"},
      {"measurement": "Subjects with at least 1 Treatment-related TEAE, %", "setting": "[2]; 150 mg daily (N = 20)", "result": "(45.0) %"},
      {"measurement": "Treatment-related TEAE of maximum severity Mild, %", "setting": "[2]; 150 mg daily (N = 20)", "result": "(25.0) %"},
      {"measurement": "Treatment-related TEAE of maximum severity Moderate, %", "setting": "[2]; 150 mg daily (N = 20)", "result": "(15.0) %"},
      {"measurement": "Treatment-related TEAE of maximum severity Severe, %", "setting": "[2]; 150 mg daily (N = 20)", "result": "(5.0) %"},
      {"measurement": "Number of adverse events: All TEAEs", "setting": "[2]; 300 mg daily (N = 21)", "result": 53},
      {"measurement": "Number of adverse events: Serious TEAEs", "setting": "[2]; 300 mg daily (N = 21)", "result": 0},
      {"measurement": "Number of adverse events: Treatment-related TEAEs", "setting": "[2]; 300 mg daily (N = 21)", "result": 37},
      {"measurement": "Subjects with at least 1 TEAE leading to withdrawal of study drug, %", "setting": "[2]; 300 mg daily (N = 21)", "result": "(4.8) %"},
      {"measurement": "Subjects with at least 1 Treatment-emergent adverse event (TEAE), %", "setting": "[2]; 300 mg daily (N = 21)", "result": "(81.0) %"},
      {"measurement": "Subjects with at least 1 Treatment-related TEAE, %", "setting": "[2]; 300 mg daily (N = 21)", "result": "(76.2) %"},
      {"measurement": "Treatment-related TEAE of maximum severity Mild, %", "setting": "[2]; 300 mg daily (N = 21)", "result": "(41.6) %"},
      {"measurement": "Treatment-related TEAE of maximum severity Moderate, %", "setting": "[2]; 300 mg daily (N = 21)", "result": "(28.6) %"},
      {"measurement": "Number of adverse events: All TEAEs", "setting": "[2]; 450 mg daily (N = 19)", "result": 54},
      {"measurement": "Number of adverse events: Serious TEAEs", "setting": "[2]; 450 mg daily (N = 19)", "result": 0},
      {"measurement": "Number of adverse events: Treatment-related TEAEs", "setting": "[2]; 450 mg daily (N = 19)", "result": 34},
      {"measurement": "Subjects with at least 1 Treatment-emergent adverse event (TEAE), %", "setting": "[2]; 450 mg daily (N = 19)", "result": "(84.2) %"},
      {"measurement": "Subjects with at least 1 Treatment-related TEAE, %", "setting": "[2]; 450 mg daily (N = 19)", "result": "(73.7) %"},
      {"measurement": "Treatment-related TEAE of maximum severity Mild, %", "setting": "[2]; 450 mg daily (N = 19)", "result": "(57.9) %"},
      {"measurement": "Treatment-related TEAE of maximum severity Moderate, %", "setting": "[2]; 450 mg daily (N = 19)", "result": "(15.8) %"},
      {"measurement": "Number of adverse events: All TEAEs", "setting": "[2]; All CM1 (N = 60)", "result": 149},
      {"measurement": "Number of adverse events: Serious TEAEs", "setting": "[2]; All CM1 (N = 60)", "result": 0},
      {"measurement": "Number of adverse events: Treatment-related TEAEs", "setting": "[2]; All CM1 (N = 60)", "result": 95},
      {"measurement": "Subjects with at least 1 Severe TEAE, %", "setting": "[2]; All CM1 (N = 60)", "result": "(1.7) %"},
      {"measurement": "Subjects with at least 1 TEAE leading to withdrawal of study drug, %", "setting": "[2]; All CM1 (N = 60)", "result": "(5.0) %"},
      {"measurement": "Subjects with at least 1 Treatment-emergent adverse event (TEAE), %", "setting": "[2]; All CM1 (N = 60)", "result": "(76.7) %"},
      {"measurement": "Subjects with at least 1 Treatment-related TEAE, %", "setting": "[2]; All CM1 (N = 60)", "result": "(65.0) %"},
      {"measurement": "Treatment-related TEAE of maximum severity Mild, %", "setting": "[2]; All CM1 (N = 60)", "result": "(43.3) %"},
      {"measurement": "Treatment-related TEAE of maximum severity Moderate, %", "setting": "[2]; All CM1 (N = 60)", "result": "(20.0) %"},
      {"measurement": "Treatment-related TEAE of maximum severity Severe, %", "setting": "[2]; All CM1 (N = 60)", "result": "(1.7) %"},
      {"measurement": "subjects with diarrhea (TEAE)", "setting": "[2]; Compound 1 subjects, all doses", "result": 25, "unit": "%"},
      {"measurement": "subjects with transient flushing associated with alcohol intake (TEAE)", "setting": "[2]; Compound 1 subjects, all doses", "result": 31.6, "unit": "%"},
      {"measurement": "Serious Adverse Events or deaths", "setting": "[2]; all dose levels, 61 days", "result": "No Serious Adverse Events or deaths were reported"},
      {"measurement": "tolerability", "setting": "[2]; all dose levels, 61 days", "result": "well-tolerated"}
    ]}
  ]
}
